We go through 1 substance from paper PMC2831815.

The series concerns Nc1ncnc2c1ncn2[C@@H]1O[C@H](COP(=O)(O)OP(=O)(O)OP(=O)(O)O)[C@@H](O)[C@H]1O. The experiment in a line: purified protein. Conditions: 10 mM MgCl2, pH 7.6, 37 °C, ATP 0.025-3.5 mM.

Take TraJ (Aeromonas veronii): the Km came out at 580 ± 100 µM.

Usually Km stands for the concentration of substrate that gives half-maximal velocity.
